test system: Mtb H37Rv; format: cell-based; details: anti-TB activity of KAN against Mtb H37Rv with compound at concentration tested (100-fold IC50 or 100 μM); Example 3

Compound | H37Rv MICKAN
CN(c1ccc(Br)cc1)S(=O)(=O)c1ccc2[nH]c(=O)c(=O)[nH]c2c1 [Compound 29] | ≤1.25 µg/mL
O=c1[nH]c2ccc(S(=O)(=O)Nc3ccc(Br)cc3)cc2[nH]c1=O [Compound 30] | ≤1.25 µg/mL
CN(c1ccccc1)S(=O)(=O)c1ccc2[nH]c(=O)c(=O)[nH]c2c1 [Compound 31] | ≤1.25 µg/mL
O=c1[nH]c2ccc(S(=O)(=O)Nc3ccccc3)cc2[nH]c1=O [Compound 32] | ≤1.25 µg/mL
CC(C)c1ccc(N(C)S(=O)(=O)c2ccc3[nH]c(=O)c(=O)[nH]c3c2)cc1 [Compound 33] | ≤1.25 µg/mL
CC(C)c1ccc(NS(=O)(=O)c2ccc3[nH]c(=O)c(=O)[nH]c3c2)cc1 [Compound 34] | ≤1.25 µg/mL
CN(c1ccc(Cl)cc1)S(=O)(=O)c1ccc2[nH]c(=O)c(=O)[nH]c2c1 [Compound 35] | ≤1.25 µg/mL
COc1ccccc1N(C)S(=O)(=O)c1ccc2[nH]c(=O)c(=O)[nH]c2c1 [Compound 36] | ≤1.25 µg/mL
CN(c1cccc(F)c1)S(=O)(=O)c1ccc2[nH]c(=O)c(=O)[nH]c2c1 [Compound 37] | ≤1.25 µg/mL
CN(c1cccc(Br)c1)S(=O)(=O)c1ccc2[nH]c(=O)c(=O)[nH]c2c1 [Compound 38] | ≤1.25 µg/mL
COc1cccc(N(C)S(=O)(=O)c2ccc3[nH]c(=O)c(=O)[nH]c3c2)c1 [Compound 39] | ≤1.25 µg/mL
COc1cc(OC)cc(N(C)S(=O)(=O)c2ccc3[nH]c(=O)c(=O)[nH]c3c2)c1 [Compound 40] | ≤1.25 µg/mL
Cc1cccc(N(C)S(=O)(=O)c2ccc3[nH]c(=O)c(=O)[nH]c3c2)c1 [Compound 41] | ≤1.25 µg/mL
CCc1cccc(N(C)S(=O)(=O)c2ccc3[nH]c(=O)c(=O)[nH]c3c2)c1 [Compound 42] | ≤1.25 µg/mL
CC(C)c1cccc(N(C)S(=O)(=O)c2ccc3[nH]c(=O)c(=O)[nH]c3c2)c1 [Compound 43] | ≤1.25 µg/mL
CCCCc1cccc(N(C)S(=O)(=O)c2ccc3[nH]c(=O)c(=O)[nH]c3c2)c1 [Compound 44] | ≤1.25 µg/mL
CN(c1cccc(C(C)(C)C)c1)S(=O)(=O)c1ccc2[nH]c(=O)c(=O)[nH]c2c1 [Compound 45] | ≤1.25 µg/mL
COc1cc(N(C)S(=O)(=O)c2ccc3[nH]c(=O)c(=O)[nH]c3c2)cc2ccccc12 [Compound 47] | ≤1.25 µg/mL

same assay, conditions: anti-tubercular activity of KAN against Mtb H37Rv with compound at 100-fold IC50 or 100 μM; Example 2

Compound | H37Rv MICKAN
O=C(C[N+]1=C(c2ccc(F)c(F)c2)c2cccn2CC1)c1cccc(Cl)c1.[Br-] [Compound 3d] | ≤1.25 µg/mL
